# Antibody variant affinities, Ab-14 heavy chain, assay B

From the AlphaSeq antibody data of Li et al. 2023 (doi:10.1038/s41467-023-39022-2), copy in the FLAb collection.

Binding partner: SARS-CoV-2 spike HR2 peptide, sequence PDVDLGDISGINAS.

Parent: Ab-14, a human scFv built as VH, a (GGGGS)3 linker, VL. Only the CDRs of the heavy chain vary.
VH: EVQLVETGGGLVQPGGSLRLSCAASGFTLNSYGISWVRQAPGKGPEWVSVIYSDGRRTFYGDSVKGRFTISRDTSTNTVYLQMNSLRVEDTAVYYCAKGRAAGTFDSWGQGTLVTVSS
VL: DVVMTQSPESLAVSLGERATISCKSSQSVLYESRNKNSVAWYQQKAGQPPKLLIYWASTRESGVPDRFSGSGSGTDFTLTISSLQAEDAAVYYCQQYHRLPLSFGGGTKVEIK

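This is the validation round: designs drawn from the data on random variants, tested in the same kind of assay. Several design methods are mixed in this list. The scFvs were displayed on barcoded MATa yeast, the peptide on MATalpha yeast. Binding brings cells together so that they mate, and sequencing counts the barcode pairs among the diploids. Each replicate has its own calibration line, from reference interactions of the BCL2 family. Mating was done six times.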

The parent's heavy chain CDRs are GFTLNSYGIS, VIYSDGRRTFYGDSVK, GRAAGTFDS; each variant's own CDRs replace them letter for letter.
Kd is apparent (estimated from mating counts) and averaged on the log scale over replicates with a signal. Smaller is tighter.
An entry "nd" has no value in the source: the pair was not observed among the diploids in any replicate. This suggests poor binding but is not conclusive.
Of ten entries with the parent sequence, four were seen in most replicates (averages 2.2 nM to 240 nM), three in one and three in none, so single entries are noisy.
The authors averaged sequences with at least three values out of six and counted those with two or fewer as poor binders.
Nonspecific signal, from three strains lacking the peptide, appeared in 1% of pairings of all heavy chain designs, centred on 120 nM (5% of these signals below 7.0 nM); values are not corrected for it. The control count says in how many pairings with the empty strains this scFv gave a signal.
A sequence measured in both rounds can read differently, since the two assays cover different ranges.

7.9 nM (6 of 6 replicates; controls 0 of 18): GFDLNSYGIS, VIYSDGRRTFYGDSVK, GNAAGTFDR.
nd (0 of 6 replicates; controls 0 of 18): GFTLNSYGIS, VIYSDGRRVFYIDSVK, GRAAGTFDD.
270 pM (6 of 6 replicates; controls 0 of 18): GFDINEYGIS, VIYADGRRTSYADSVK, GQNAGTFDV.
nd (0 of 6 replicates; controls 1 of 18): GFTLNDYGIS, VIYSDGRRTAYMDSVK, GRAAGTFDS.
nd (0 of 6 replicates; controls 0 of 18): GFDLQEYGIS, VIYADGQRTKVADNVK, GNVTFTAGV.
200 nM (2 of 6 replicates; controls 0 of 18): GFNLNSYGIS, VIYFDGRRTFYGDSVK, GRAAGTFDS.
430 pM (6 of 6 replicates; controls 0 of 18): GFDLDEYGIS, VIYADGQRTAYADSVK, GNVAGTFDM.
18 nM (3 of 6 replicates; controls 0 of 18): GFTLNSYGIS, VIYSDGRRTFYGDSVK, GWEAGTFDS.
nd (0 of 6 replicates; controls 1 of 18): GFSLDEYGIS, VIYADGMRTAYTADVK, GGKSEDVVT.
2.0 nM (1 of 6 replicates; controls 0 of 18): GFTLNDYGIS, VIYSDGKRTMYMDSVK, GRAAGTFDS.
250 nM (5 of 6 replicates; controls 0 of 18): GFTLNSYGIS, VIYSDGRRTFYNDSVK, GRLAGTFDS.
460 pM (6 of 6 replicates; controls 1 of 18): GFDLEDYGIS, VIYADGMRTAYADSVK, GNVAGTFDM.
nd (0 of 6 replicates; controls 0 of 18): GFDLKEYGIS, VIYADGRRTEYDNDVK, GQVAGIFLD.
nd (0 of 6 replicates; controls 0 of 18): GFTLNSYGIS, VIYSDGMRTFYGDSVK, GKATGTFDS.
57 nM (6 of 6 replicates; controls 0 of 18): GFTLMSYGIS, VIYADGRRTFYGDSVK, GQAAGTFTS.
nd (0 of 6 replicates; controls 0 of 18): GFRLNSYGIT, VIYSDGRRTFYNDSVK, GTDATTFDS.
880 nM (4 of 6 replicates; controls 1 of 18): GFTLNEYGIS, VIYADGRRTFYGDSVK, GQAAGTFIS.
nd (0 of 6 replicates; controls 0 of 18): GFDLNEYGIS, VIYADGQRTFYSDSVK, GNQAGTFDI.
nd (0 of 6 replicates; controls 0 of 18): GFVLSEYGIS, VIYADGNRTFYAPNVK, GQFNVVLNV.
16 nM (1 of 6 replicates; controls 0 of 18): GFSLNWYGIS, VIYSDGRRTYYIDSVK, GRAAGTFDS.
550 pM (6 of 6 replicates; controls 1 of 18): GFDLEDYGIS, VIYADGMRTAYADSVK, GEVAGTFDV.
540 pM (1 of 6 replicates; controls 0 of 18): GFTLNNYGIS, VIYADGRRTFYGDSVK, GDAPGTFDS.
3.7 nM (6 of 6 replicates; controls 0 of 18): GFTLNSYGIS, VIYSDGRRTFYSDSVK, GEAAGTFDK.
350 pM (6 of 6 replicates; controls 1 of 18): GFDLDEYGIS, VIYADGMRTAYADNVK, GEVAGTFDL.
nd (0 of 6 replicates; controls 0 of 18): GEDLNSYGIS, VIYADGLRTAYADNFK, GNGEGQFDV.
nd (0 of 6 replicates; controls 1 of 18): GFDLNEYGIS, VIYADGRRTFYIDSVK, GTNAGTFDL.
530 pM (6 of 6 replicates; controls 0 of 18): GFDLNEYGIS, VIYADGQRTAYADSVK, GKAAGTFDF.
1.0 nM (5 of 6 replicates; controls 0 of 18): GFSLNTYGIS, VIYSDGRRTFYGDSVK, GEAAGTFDS.
nd (0 of 6 replicates; controls 1 of 18): GFDLDQYGIS, VIYADGIRSVYADAVK, GHEGGILLV.
51 nM (1 of 6 replicates; controls 0 of 18): GFPLNSYGIS, VIYSDGRRTFYGDSVC, GRAHGTFDS.
160 pM (3 of 6 replicates; controls 0 of 18): GFDLDEYGIS, VIYADGMRKAYADSVK, GENAGTFDV.
110 nM (4 of 6 replicates; controls 0 of 18): GFNLNSYGIS, VIYSDGRRTFYHDSVK, GWMAGTFDS.
nd (0 of 6 replicates; controls 0 of 18): GFWLNEYGIS, VIYSDGRRTFYHDSVK, GRAAGTFWS.
590 pM (6 of 6 replicates; controls 0 of 18): GFDLDEYGIS, VIYADGRRTAYADSVK, GEAAGTFDI.
470 pM (6 of 6 replicates; controls 1 of 18): GFDLNEYGIS, VIYADGMRTAYADSVK, GGNAGTFDL.
2.6 nM (1 of 6 replicates; controls 0 of 18): GFTLCSYGIS, VIYADGRRTFYGDSVK, GRAAGTFDS.
nd (0 of 6 replicates; controls 0 of 18): GVWLNSYGMS, VIYSDGRRTFYNDSVK, GRAAGTFDS.
1.8 nM (6 of 6 replicates; controls 0 of 18): GFELNEYGIS, VIYSDGRRTFYGDSVK, GQAAGTFDT.
7.5 nM (5 of 6 replicates; controls 0 of 18): GFTLNSYGIS, VIYSDGMRTFYSDSVK, GKTAGTFDS.
nd (0 of 6 replicates; controls 0 of 18): GFTLHSYGIS, VIYSDGRRTDYNDSVK, ERAAGKALS.
310 pM (6 of 6 replicates; controls 0 of 18): GFSLNEYGIS, VIYADGRRTFYADSVK, GEAAGTFDQ.